Source: patent US12410179B2, “Modulators of TNF alpha activity and uses thereof” (RayThera, Inc., priority 2023, dated 2025)

Chains of the proteins cited; added tags and fusions are not shown. Residues count along the entry.
UniProt P01375, 77-233 limits assumed: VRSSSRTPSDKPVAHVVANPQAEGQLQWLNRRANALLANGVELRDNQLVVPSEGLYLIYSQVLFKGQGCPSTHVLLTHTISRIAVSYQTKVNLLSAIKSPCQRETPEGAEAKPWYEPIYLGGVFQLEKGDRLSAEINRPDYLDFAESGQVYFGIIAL

target: TNFα (Homo sapiens, UniProt P01375); assay: HEK-Blue hTNFα reporter assay; conditions: read-out: IC50 Range; HEK-Blue hTNFα reporter cells, SEAP readout

| SMILES | IC50 [nM] |
| --- | --- |
| CN1C(=O)c2cccc(OC(F)F)c2[C@H]2C[C@@H]1c1nn3ccc(-c4cnc(N5CC6(COC6)C5)nc4)cc3c12 | < 25 |
| CN1C(=O)c2cccc(OC(F)F)c2[C@H]2C[C@@H]1c1nn3cnc(-c4cnc(C5(O)CC(F)(F)C5)nc4)cc3c12 | < 25 |
| C[C@]1(O)C[C@](N)(c2ncc(-c3cc4c5c(nn4cc3F)[C@H]3C[C@@H]5c4c(OC(F)F)cccc4C(=O)N3)cc2F)C1 | < 25 |
| [2H]C([2H])([2H])N1C(=O)c2ccc(F)c(OC(F)F)c2[C@H]2C[C@@H]1c1nn3cc(F)c(-c4cnc([C@]5(N)C[C@@](C)(O)C5)nc4)nc3c12 | < 25 |
| [2H]C([2H])([2H])N1C(=O)c2cccc(OC(F)F)c2[C@H]2C[C@@H]1c1nn3cc(F)c(-c4cnc(C5(N)CC5)nc4)cc3c12 | < 25 |
| CN1C(=O)c2ccnc(OC(F)F)c2[C@H]2C[C@@H]1c1nn3ccc(-c4cnc(C5(O)CC(F)(F)C5)nc4)cc3c12 | < 25 |
| NC1(c2ncc(-c3cc4c5c(nn4cc3F)[C@H]3C[C@@H]5c4c(OC(F)F)cccc4C(=O)N3)cn2)CCC1 | < 25 |
| [2H]C([2H])([2H])N1C(=O)c2cccc(OC(F)F)c2[C@H]2C[C@@H]1c1nn3cnc(-c4cnc([C@]5(N)C[C@@](C)(O)C5)nc4)cc3c12 | < 25 |
